From patent US7041844B2 come the findings set out here.

Amino acid sequences for entries named in this document (tags omitted).
UniProt P15207, whole entry S389L: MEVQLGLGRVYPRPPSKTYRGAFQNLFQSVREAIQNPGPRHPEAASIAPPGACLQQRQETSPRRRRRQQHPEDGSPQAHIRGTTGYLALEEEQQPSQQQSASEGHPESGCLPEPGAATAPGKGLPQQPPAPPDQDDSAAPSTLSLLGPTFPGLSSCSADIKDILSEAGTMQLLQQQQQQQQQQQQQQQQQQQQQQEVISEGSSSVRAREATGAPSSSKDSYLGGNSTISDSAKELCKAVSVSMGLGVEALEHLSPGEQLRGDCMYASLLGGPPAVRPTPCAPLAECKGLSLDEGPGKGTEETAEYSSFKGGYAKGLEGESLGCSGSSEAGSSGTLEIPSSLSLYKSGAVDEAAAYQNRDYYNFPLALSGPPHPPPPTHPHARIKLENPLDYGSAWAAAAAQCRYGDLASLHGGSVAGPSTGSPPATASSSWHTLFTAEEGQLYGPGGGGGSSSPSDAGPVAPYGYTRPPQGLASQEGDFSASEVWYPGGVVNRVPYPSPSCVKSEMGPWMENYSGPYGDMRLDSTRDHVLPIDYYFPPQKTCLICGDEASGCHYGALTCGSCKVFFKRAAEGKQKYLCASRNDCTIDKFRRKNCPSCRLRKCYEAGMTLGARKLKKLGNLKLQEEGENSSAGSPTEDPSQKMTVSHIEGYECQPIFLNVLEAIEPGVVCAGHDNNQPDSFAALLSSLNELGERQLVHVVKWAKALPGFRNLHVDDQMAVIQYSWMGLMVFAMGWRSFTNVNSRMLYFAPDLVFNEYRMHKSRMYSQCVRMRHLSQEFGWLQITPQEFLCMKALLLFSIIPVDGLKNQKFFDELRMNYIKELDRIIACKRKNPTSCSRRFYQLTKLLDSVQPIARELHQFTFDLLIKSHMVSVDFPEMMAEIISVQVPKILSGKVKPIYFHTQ

What is called Ki is the equilibrium dissociation constant of an inhibitor or competing ligand from its target.

In assay [1] the target is T1, rat ventral prostate AR (Rattus norvegicus, UniProt P15207). Type of assay: binding.
The target of assay [2] is T1, rat ventral prostate AR. Briefly: AR exchange assay (irreversible binding, exchangeable specific 3H-MIB binding).
The mark [3] stands for this setting: 3H-MIB 1 nM, 4° C., 18 hours, Table 3.

Where two headings read alike, the source gives them in different places.

For `C[C@](O)(CSc1cccc(NC(=O)CCl)c1)C(=O)Nc1ccc(C#N)c(C(F)(F)F)c1`, the Ki at rat ventral prostate AR [1] (setting [3]) was determined as 1100 nM.

At rat ventral prostate AR [1] (setting [3]), `C[C@](O)(CSc1cccc(NC(=O)CBr)c1)C(=O)Nc1ccc(C#N)c(C(F)(F)F)c1` had an inhibitory constant (Ki) of 250 nM.

Consider `C[C@](O)(CS(=O)(=O)c1ccc(N=C=S)cc1)C(=O)Nc1ccc(C#N)c(C(F)(F)F)c1`, for which the “irreversible binding to the AR (result in words)” value on rat ventral prostate AR [2] (AR exchange assay) was “bind the AR irreversibly”. The “number of exchangeable AR binding sites, % of control incubations with no ligand” value at rat ventral prostate AR [2] (ligand 2 μM, within 0.5 hr, preliminary time-dependent AR inactivation experiment) is on record as 50%. Further, the “exchangeable specific binding of 3H-MIB (% of control)” value on rat ventral prostate AR [2] (ligand 10 μM, pre-incubation at 4° C. for up to 12 hours, exchange with 1 nM 3H-MIB) is listed as 15 % of control. Further, at rat ventral prostate AR [1], the Ki stood at 30 nM.

`C[C@](O)(CSc1ccc(N=[N+]=[N-])cc1)C(=O)Nc1ccc(C#N)c(C(F)(F)F)c1`: the Ki on rat ventral prostate AR [1] (setting [3]) was 11.5 nM.
